Measured values as given in US20030118983A1, “Rapid screening procedure for inflammation mediators” (priority 2000, published 2003).

Columns and labels:
PMNs [1] = test: Heme protein effect on DCFH oxidation in unstimulated, LPS and TNFα-, and PMA-stimulated PMNs, with or without NOS inhibitors, SOD or antioxidants; format: cell-based, human; details: PMA-stimulated PMNs, albumin 20 mg/mL
Procedure: DCFH-loaded PMNs were incubated with and without N-methyl-L-arginine (L-NMMA; 5 mM; Calbiochem, San Diego, Calif.) and heme proteins (0.3-1000 μg/mL) at 37 ° C. for 10 minutes. […] In unstimulated and LPS and TNFα -stimulated PMNs, the treatments were oxyMb, or oxyMb+L-NMMA (5 mM). […] RBC cell membranes were ruptured using a micro-ultrasonic cell disrupter, Kontes, Janke and Kukel Gmbh and CO. (Stauten, Germany). In PMA-stimulated PMNs without arginine, the treatments were oxyMb (dithionite-treated), oxyMb, chromatographically-purified oxyHb-A0 (98% ferrous), α-α […] cross-linked oxyHb (98.6% ferrous), oxyHb, or metHb. OxyMb was prepared by mixing excess sodium dithionite with Mb for 1 h and inorganic sulfur compounds were removed by dialyzing in HBSS buffer for 3 h. Percent iron in the ferric state in non-dithionite treated oxyMb or oxyHb was not assessed. Endotoxin levels in α-α Hb as determined by limulus amebocyte lysate assay was 0.125 EU/mL. […] cross-linked Hb was a gift from Walter Reed Army Institute of Research. […] Also, various concentrations of bovine liver Cu, Zn SOD (30-10,000 U/mL; 8-2640 μg/mL) and 30 μg/mL oxyMb were incubated with PMA-stimulated PMNs pretreated with and without L-NMMA. Flow cytometric measurements of oxidant-induced DCF fluorescence were performed as described above.

PMNs [2] = test: OxyHb-FLEX bound to and internalized into PMNs (flow cytometry); format: cell-based, human; details: albumin 330 μM; 20 mg/mL; data not shown
Procedure: OxyHb bound to and internalized into PMNs was determined using fluorescein-conjugated oxyHb (Molecular Probes, Eugene, Oreg.). […] OxyHb-FLEX (1-250 μg/mL) was incubated with PMNs with and without albumin (20 mg/mL) for 10 min in a shaking water bath at 37° C. followed by a 30 min incubation with or without LPS (10 ng/mL) and TNFα (1 ng/mL) or PMA (200 nM). Flow cytometric measurements were performed as described above. To visualize intracellular levels of oxyHb-FLEX, whole cell and Z-plane images of PMNs were collected using an Axiovert 135 inverted confocal microscope (Zeiss, Thornwood, N.Y., and Atto Instruments, Rockville, Md.).

## human albumin: human albumin at levels found in extracellular space of tissues (20 mg/mL)
PMNs [1]
  reduction of oxyMb-induced DCF fluorescence: approximately 75%
PMNs [2]
  effect on oxyHb binding to PMA-activated PMNs: did not alter oxyHb binding
